The series concerns CC(Oc1ccc(Oc2cnc3cc(Cl)ccc3n2)cc1)C(=O)O. The series is described as follows: purified protein, by the assay type. As to conditions: other: purified AAD1 (v1), 25 mM MOPS pH 6.8, 25° C.

“AAD1 (v1) (Sphingobium herbicidovorans NBRC 16415)”: the Km (usually the concentration of substrate that gives half-maximal velocity) amounted to 125 ± 20 µM.

(Values after patent US10450549B2, “Aryloxyphenoxypropionate tolerance in turfrgass species and use of AAD1 as a selectable marker” (Dow AgroSciences, LLC, priority 2004, dated 2019).)
